From US9133187B2, “Serine/threonine kinase inhibitors” (ARRAY BIOPHARMA INC., priority 2011, dated 2015)

The chains behind the UniProt entries cited, without tags or fusion partners. Residues count along the entry.
UniProt P28482, 8-360: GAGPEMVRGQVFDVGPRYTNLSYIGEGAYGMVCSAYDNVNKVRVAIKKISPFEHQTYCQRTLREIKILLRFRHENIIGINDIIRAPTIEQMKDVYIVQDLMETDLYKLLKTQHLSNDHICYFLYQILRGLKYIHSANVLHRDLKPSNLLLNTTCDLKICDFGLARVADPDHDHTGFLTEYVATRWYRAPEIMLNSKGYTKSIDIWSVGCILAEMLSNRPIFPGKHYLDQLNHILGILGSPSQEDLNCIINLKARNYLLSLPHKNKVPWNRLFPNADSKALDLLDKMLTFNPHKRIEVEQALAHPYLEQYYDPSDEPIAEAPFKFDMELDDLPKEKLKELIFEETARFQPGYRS

Target: human ERK-2 (Mitogen Activated Kinase 1) (Homo sapiens (Human), UniProt P28482)
Assay: ERK-2 Enzymatic Assay
Type: biochemical
Conditions: 5 nM ERK-2, 25 μM ATP, Omnia peptide S/T17; read-out: ERK Inhibition IC50
Description: Compounds were tested in an enzymatic assay using human ERK-2 (Mitogen Activated Kinase 1), recombinantly expressed as an n-terminal 6-His fusion protein in E. coli and corresponding to aa 8-360. The substrate used was the fluorescent Omnia peptide S/T17 (Invitrogen of Carlsbad, Calif.; Cat. KNZ1171C). Test compounds were diluted in DMSO in 3-fold serial dilutions at 100× final concentrations. […] The assay was run at ambient temperature in a white 384-well polypropylene plate (Nunc, Inc of Naperville, Ill.; Cat. 267462) collecting data every 50 seconds for approximately 30 minutes on an Envision plate reader (PerkinElmer, Inc. of Waltham, Mass.); Excitation 340 nm/Emission 495 nm. The data collected from each well was fit to a straight line and the resulting rates were used to calculate percent of control. Percent of control was plotted against compound concentration and IC50 values were determined using a four-parameter fit.

IC50: 4.1 nM
SMILES: O=C(N[C@H](CO)c1ccc(F)c(Cl)c1)N1CCc2cnc(N[C@H](CO)Cc3ccccc3)nc2C1 [II-17, 2-((S)-1-Hydroxymethyl-2-phenyl-ethylamino)-5,8-dihydro-6H-pyrido[3,4-d]pyrimidine-7-carboxylic acid [(S)-1-(3-chloro-4-fluoro-phenyl)-2-hydroxy-ethyl]-amide]
